These results are taken from US20030203890A1 (priority 2001, published 2003).

Sequences of proteins named here, by UniProt entry; tags and fusion partners are left off.
UniProt P62942, whole entry: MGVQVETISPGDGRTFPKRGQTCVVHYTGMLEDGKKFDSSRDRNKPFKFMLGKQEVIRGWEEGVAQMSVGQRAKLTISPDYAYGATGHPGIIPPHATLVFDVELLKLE

This assay addresses FKBP12 (Homo sapiens, UniProt P62942). Nature of the assay: K1 test procedure: inhibition of peptidyl-prolyl isomerase (rotamase) activity of FKBP12, chymotrypsin-coupled assay. It counts as biochemical. Particulars: read-out: K1, apparent Ki, Table XLIII, Formulas XXV to XXIX.

Turning to `O=C(C(=O)N1CCC[C@H]1C(=O)OCCCc1ccccc1)c1nccs1`, the Ki turned out to be 100 nM.
